# Rows were chosen to be rich in hits. Some 0.46% of all compounds tested hit in one or more screens of this group.
# Chronic BCR inh: blocks chronic active B-cell receptor signaling. 0.05% of 340,000 active. ABC-DLBCL IkBa-CBG/CBR reporter, luminescence ratio, 4 h. AID 493014. Potency, µM (highest dose often 46.1 µM), without a hit: at the highest dose activity change, negative = inhibition, usual class: inhibitors; active = well fitted inhibition curve with a large enough effect in the signal ratio, with a control signal flat, not every such curve was filed as active; inconclusive = small, poorly fitted or top-dose-only effect, or effect the other way, or a change in a side signal; the % refers to the signal ratio;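 also: potency is read from the fitted curve at half-maximal effect; plate controls were basal doxycycline-induced cells for no effect and cells given 10 µM MG132 for full effect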
#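 TMD8 human ABC-DLBCL cells with doxycycline-inducible IκBα–green luciferase fusion and unfused red luciferase, in 0.5% FBS medium; compounds up to 46 uM, 4 h at 37C. Green/red luminescence ratio, filter-overlap corrected, fitted to concentration-response curves.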
# miR-21 reporter: raises the signal of a miR-21 reporter. Potency, µM (highest dose often 38.3 µM), without a hit: top-dose reporter change, positive = more light. 340,000 tested, under 10 active. HeLa miR-21 FLuc reporter, luciferase, 48 h; active = well fitted rising curve with a large enough effect; inconclusive = small, poorly fitted or top-dose-only effect; inactive = no such curve, though single readings can be large or run the other way;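 further: % of control where 0% means no effect; miR-21 action dims this reporter so a rising signal means less miR-21 action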
#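 Luminescence from a firefly luciferase reporter carrying a miR-21 binding site downstream, stably expressed under a CMV promoter in HeLa cells that make miR-21 endogenously, reports miRNA modulation after 48 h compound exposure up to approximately 40uM final.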
# B2AR arrestin: beta2AR (human) beta-arrestin recruitment activity | beta-arrestin recruitment to beta2AR, cell-based reporter | AID 492947 | Potency, µM (series often up to 46.1 µM), for the others: at the top dose activation, most hits filed as activators | 0.02% of 330,000 active;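 also: potency is read from the fitted curve at half-maximal effect; 0% = DMSO controls and full agonism = EC100 isoproterenol or metaproterenol; nearly all actives have a fitted effect of over 65% in size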
# Pin1 inhibitor: inhibitors of human Pin1 | Q13526 | Pin1 FP peptide displacement, HiFluor488, 10 min | Potency, µM (titrated, usually from 115 µM), for the others: at the highest dose activity, negative = inhibition, usual class: inhibitors | 0.009% of 390,000 active | AID 504891; active = well fitted inhibition curve with a large enough effect in the polarisation, with a control signal flat, not every such curve was filed as active; inconclusive = small, poorly fitted or top-dose-only effect, or effect the other way, or a change in a side signal; inactive = no such curve, though single readings can be large or run the other way; the % refers to the polarisation; also: potency is read from the fitted curve at half-maximal effect; % is scaled to controls: 0 for no effect and ±100 for the full control effect
# PINK1 modulator: PINK1 expression modulation | 0.2% of 410,000 active | Potency, µM (top dose mostly 76.6 µM), for inactives: top-dose activation (PINK1 increase), actives largely listed as activators | PINK1 immunofluorescence, high-content cytometry, 24 h; active = well fitted activation curve with a large enough effect; inconclusive = small, poorly fitted or top-dose-only effect; cell line not stated here; also: potency is read from the fitted curve at half-maximal effect; % of control where 0% means no effect; nearly all actives have a fitted effect of over 65% in size
#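 PINK1 protein, normally rapidly degraded, was detected by immunofluorescence after 24 hour compound treatment of a stable cell line. Titration data (5 concentrations) came from laser-scanning cytometry, with CCCP-treated wells as controls.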
# PKM2 activator: activators of human pyruvate kinase M2. P14618. purified PKM2, Kinase-Glo ATP luminescence, activation; response scale: 0% is enzyme alone, no compound. Potency, µM (doses to about 57.5 µM), inactives show at the top dose activation, usual class: activators. 0.34% of 260,000 active. AID 1631; also: potency is read from the fitted curve at half-maximal effect; % is scaled to controls: 0 for no effect and ±100 for the full control effect; nearly all actives have a fitted effect of over 55% in size
#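 Purified hPK-M2 (>95%) run at intermediate activity with 0.1 mM ADP and 0.5 mM PEP in 50 mM imidazole pH 7.2, KCl, MgCl2; 1 h room temperature. ATP formed read by Kinase-Glo luminescence; normalized to uninhibited and no-enzyme controls.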
# * marks the source's active call; other numbers are inactive results; ? = inconclusive; . = not tested or not shown. Unless noted, calls follow the shape of the dose curve; as a rule, active = well fitted curve in the direction sought with a large enough effect; inconclusive = small, poorly fitted or top-dose-only effect, or another doubt; inactive = no such curve, though single readings can be large; an effect the other way counts as inactive or inconclusive.
# Short forms: A = Chronic BCR inh; B = miR-21 reporter; C = B2AR arrestin; D = Pin1 inhibitor; E = PINK1 modulator; F = PKM2 activator
> CC1=CC(C)(C)N(S(=O)(=O)c2ccc(C)cc2)c2ccccc21
  A: 23.1µM*; B: 23.9%; C: -0.3%; D: ?; E: ?; F: -5.9%
> COc1ccc2c(c1)C(C)=CC(C)(C)N2S(=O)(=O)c1ccc(NC(C)=O)cc1
  A: 4.47µM*; B: ?; C: 0.5%; D: ?; E: 3.8%; F: -4.6%
> COc1cccc(C(=O)NCc2nc(-c3cccc(NC(=O)c4ccoc4C)c3)oc2C)c1
  A: .; B: .; C: .; D: .; E: -0.4%; F: .
> O=C(Nc1ccc(Cl)cc1)Nc1nnc(CSCc2ccccc2Cl)s1
  A: ?; B: 4.6%; C: 0.3%; D: 0.9%; E: 39.8µM*; F: -8.6%
> O=C(Nc1ccccc1)Nc1nnc(CSCc2ccccc2Cl)s1
  A: 0.6%; B: -5.6%; C: 0.9%; D: 10.5%; E: ?; F: -8.1%
> O=C(Nc1ccc(Cl)c(Cl)c1)Nc1nnc(CSc2ccccc2)s1
  A: 5.0%; B: -3.8%; C: 1.5%; D: 19.8%; E: 10µM*; F: -3.9%
> N#Cc1nc(Nc2cccc(-c3ccccc3)c2)nc(NC2CCCC2)n1
  A: .; B: .; C: .; D: 12.4%; E: .; F: .
> COc1cccc(CN2C(=O)c3ccccc3NC2c2ccc(OC)c(COc3ccc(NC(C)=O)cc3)c2)c1 (configuration not stated)
  A: .; B: .; C: .; D: 5.8%; E: .; F: .
> C=CC[n+]1ccc(/C=C2\C=Cc3cc(C)ccc3N2CC)c2ccccc21
  A: ?; B: ?; C: 0.3%; D: ?; E: 3.16µM*; F: -36.9%
> N#C/C(=C\c1ccc(N2CCCCC2)o1)C(=O)Nc1cccc(Br)c1
  A: -9.0%; B: -57.1%; C: -0.7%; D: ?; E: 6.31µM*; F: -6.9%
> NC(=O)C1CCN(c2ncc(-c3ccc4c(c3)OCCCO4)s2)CC1
  A: .; B: .; C: .; D: -5.6%; E: .; F: .
> O=C(Nc1ccccc1)C1=C(O)CC(c2ccc(Cl)cc2)N2CCN=C12 (configuration not stated)
  A: ?; B: -14.1%; C: 1.8%; D: 22.2%; E: 1.2%; F: 17.8µM*
> NC(=S)N=Nc1c(O)n(Cc2ccc(F)cc2)c2ccccc12
  A: ?; B: -12.9%; C: 9.2µM*; D: -0.8%; E: 2.5%; F: -1.8%
> NC(=S)N=Nc1c(O)n(Cc2ccc(Br)cc2)c2ccccc12
  A: ?; B: 13.5%; C: 3.8%; D: -4.9%; E: -0.1%; F: -0.1%
> O=C(Cn1nnc(-c2ccccc2Cl)n1)N1CCCCC1
  A: -5.9%; B: -52.6%; C: -0.4%; D: -8.0%; E: 0.1%; F: 0.2%
> COc1ccccc1-n1cnnc1SCC(=O)N1CCN(S(=O)(=O)c2ccccc2)CC1
  A: ?; B: -2.6%; C: -0.7%; D: -3.8%; E: -2.1%; F: 15.8µM*
> CC(=O)Nc1ccc(SCC(=O)N2CCN(S(=O)(=O)c3ccccc3)CC2)cc1
  A: -1.4%; B: 4.0%; C: 0.4%; D: ?; E: 0.4%; F: ?
> O=C(CSc1ccc(F)cc1)N1CCN(S(=O)(=O)c2ccccc2)CC1
  A: 2.7%; B: -5.0%; C: 0.2%; D: -1.7%; E: 1.0%; F: 3.16µM*
> Cc1ccc(S(=O)(=O)N2CCN(C(=O)CSc3ccc(Cl)cc3)CC2)cc1
  A: 2.5%; B: -0.4%; C: -0.3%; D: -5.3%; E: -2.1%; F: 14.1µM*
> O=C(Cn1nnc(-c2ccccc2Cl)n1)N1CCN(S(=O)(=O)c2ccc(Cl)cc2)CC1
  A: 1.9%; B: 0.4%; C: -0.3%; D: 9.2%; E: 0.9%; F: 7.94µM*

# Sorted by value in Chronic BCR inh (rising): 3 from the list above.
compound | Chronic BCR inh
CC(=O)Nc1ccc(SCC(=O)N2CCN(S(=O)(=O)c3ccccc3)CC2)cc1 | -1.4%
Cc1ccc(S(=O)(=O)N2CCN(C(=O)CSc3ccc(Cl)cc3)CC2)cc1 | 2.5%
O=C(CSc1ccc(F)cc1)N1CCN(S(=O)(=O)c2ccccc2)CC1 | 2.7%

# Carrying on.
# Short forms: A = Chronic BCR inh; B = miR-21 reporter; C = B2AR arrestin; D = Pin1 inhibitor; E = PINK1 modulator; F = PKM2 activator
> Cc1ccc(SCC2(O)CCN(S(=O)(=O)c3ccc(Cl)cc3)CC2)cc1
  A: 4.2%; B: 7.6%; C: 4.7%; D: 4.5%; E: 1.0%; F: -0.5%
> C[C@@H]1CN(Cc2ccc3c(c2)CN(Cc2coc4ccccc4c2=O)CCO3)C[C@H](C)O1
  A: .; B: .; C: .; D: .; E: 0.1%; F: .
> O=S(=O)(c1ccc2c(c1)OCCO2)N1CCN(S(=O)(=O)c2ccccc2OC(F)(F)F)CC1
  A: .; B: .; C: .; D: 16.1%; E: .; F: .
> O=c1c2ccccc2nc2sc(Nc3cccc(N4CCNCC4)c3)nn12
  A: .; B: .; C: .; D: 21.4%; E: .; F: .
> COc1ccccc1C(=O)N(Cc1cc2cccc(C)c2nc1N1CCC(O)CC1)C1CC1
  A: .; B: .; C: .; D: .; E: 0.2%; F: .
> O=C1c2ccccc2C(=O)N1c1cccc2ncccc12
  A: .; B: .; C: .; D: -12.1%; E: .; F: .
> O=C(CSc1n[nH]c(-c2cccs2)n1)N1CCCC1
  A: 5.8%; B: .; C: -0.2%; D: 3.2%; E: 1.8%; F: .
> O=C(CSc1nncs1)N1CCN(S(=O)(=O)c2ccccc2)CC1
  A: 14.1%; B: 0.3%; C: -0.1%; D: -8.2%; E: 0.2%; F: 26.3%
> Cc1ccc(S(=O)(=O)N2CCN(C(=O)CSc3nncs3)CC2)cc1
  A: 3.8%; B: -2.3%; C: 0.2%; D: 0.6%; E: 3.3%; F: 17.8µM*
> Cc1ccc(S(=O)(=O)N2CCCN(S(=O)(=O)c3ccc(C)cc3)CC2)cc1
  A: -5.9%; B: 0.5%; C: -0.4%; D: 9.3%; E: -2.0%; F: 8.91µM*
> O=C(CSc1n[nH]c(-c2cccs2)n1)N1CCN(S(=O)(=O)c2ccccc2)CC1
  A: ?; B: -8.2%; C: 0.0%; D: 7.9%; E: .; F: 25.1µM*
> Cc1ccc(S(=O)(=O)N2CCCCC2)cc1
  A: 1.6%; B: -6.9%; C: 0.3%; D: 2.9%; E: 0.8%; F: .
> NCCC(=O)Nc1cccc(-c2nn3c(=O)cc(N4CCNCC4)nc3s2)c1
  A: .; B: .; C: .; D: 0.6%; E: .; F: .
> COc1ccccc1C(=O)Nc1cccc(N2CCC(NCc3cnn(-c4ccccc4)n3)CC2)c1
  A: .; B: .; C: .; D: .; E: 1.7%; F: .
> Cc1nnsc1C(=O)NCC1Cc2cccc(-c3ncccn3)c2O1 (configuration not stated)
  A: .; B: .; C: .; D: .; E: 0.2%; F: .
> Cc1ccc(-c2ccnc(N3CCC(C(N)=O)CC3)n2)cc1
  A: .; B: .; C: .; D: 8.3%; E: .; F: .
> O=C(Nc1c(Cl)cccc1Cl)c1cc(=O)n(Cc2ccccc2)c(=O)[nH]1
  A: ?; B: -11.0%; C: -0.1%; D: 1.7%; E: 10µM*; F: -0.8%
> Cc1cccc(NC(=O)c2cc(=O)n(Cc3ccccc3)c(=O)[nH]2)c1
  A: 1.8%; B: -4.7%; C: -0.2%; D: -4.0%; E: 2.2%; F: -2.7%
> N=c1c2c(ncn1-c1ccccc1)Oc1ccc3ccccc3c1C2c1ccc2c(c1)OCCO2 (configuration not stated)
  A: .; B: .; C: .; D: 113.8%; E: .; F: .
> COc1ccc(C2N(Cc3ccccc3)C(=O)c3ccccc3N2C)cc1COc1ccc(NC(C)=O)cc1 (configuration not stated)
  A: .; B: .; C: .; D: 24.4%; E: .; F: .
> COCc1c(C(=O)N2CCC(c3ccccc3)CC2)cnn1-c1nccc(-c2cc(C)sc2C)n1
  A: .; B: .; C: .; D: .; E: -1.1%; F: .
> FC(F)(F)Oc1ccc(NC(=S)Nc2ccc(OC(F)(F)F)cc2)cc1
  A: 9.0%; B: 29.2%; C: 0.6%; D: ?; E: 15.8µM*; F: -9.0%
> COc1ccc2c(c1)-c1nc(-n3ncc(C(=O)NCc4cccnc4)c3C3CC3)ncc1CC2
  A: .; B: .; C: .; D: .; E: -0.4%; F: .
> O=C(N1Cc2ccc(Nc3nn4c(=O)c5ccccc5nc4s3)cc2C1)C(F)(F)F
  A: .; B: .; C: .; D: 7.0%; E: .; F: .
> CC(=O)NC(=S)c1c(N)n(Cc2ccccc2)c(=O)n(C)c1=O
  A: 10.6%; B: -3.8%; C: 0.1%; D: .; E: .; F: 17.2%
> COC(=O)c1ccc(C(c2c(N)n(Cc3ccccc3)c(=O)n(C)c2=O)N2CCOCC2)cc1 (configuration not stated)
  A: -17.3%; B: 2.6%; C: 0.4%; D: 0.5%; E: -4.9%; F: 12.6µM*

# High-throughput results from PubChem.
